# The entries are a selection whose mix differs from that of the whole data set. Results filed as inconclusive are left out. A call without a number means that no potency is given here. Activity calls are given as the source filed them. Calls come from the whole dose curve; as a rule, active = well fitted inhibition curve with a large enough effect; inconclusive = small, poorly fitted or top-dose-only effect, or effect the other way; inactive = no such curve, though single readings can be large or run the other way.
# Protein sequences, listed by entry. Tags and fused reporters are not part of them. Lines headed by an entry give the natural chain unless they say otherwise; changes in a name come on top.
# UniProt P51450: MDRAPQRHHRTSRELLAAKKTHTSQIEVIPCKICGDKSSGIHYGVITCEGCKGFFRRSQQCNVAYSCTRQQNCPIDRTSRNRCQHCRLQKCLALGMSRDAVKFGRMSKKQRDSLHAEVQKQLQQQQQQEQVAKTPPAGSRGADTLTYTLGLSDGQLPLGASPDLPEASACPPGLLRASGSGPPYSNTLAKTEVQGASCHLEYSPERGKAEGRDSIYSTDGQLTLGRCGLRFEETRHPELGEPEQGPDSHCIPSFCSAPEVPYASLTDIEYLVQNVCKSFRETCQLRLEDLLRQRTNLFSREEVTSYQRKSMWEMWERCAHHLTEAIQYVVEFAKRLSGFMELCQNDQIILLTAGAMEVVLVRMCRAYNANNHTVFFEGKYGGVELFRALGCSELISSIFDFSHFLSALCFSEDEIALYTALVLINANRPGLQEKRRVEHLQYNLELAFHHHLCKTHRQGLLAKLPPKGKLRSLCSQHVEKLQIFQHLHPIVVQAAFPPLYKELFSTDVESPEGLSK
# Target: Nuclear receptor ROR-gamma (Mus musculus) (UniProt P51450)
# Experiment: qHTS for inhibitors of ROR gamma transcriptional activity; note: nearly all actives have a fitted effect of over 60% in size
# Conditions: Drosophila S2 Gal4-RORgamma UAS-luciferase reporter, 20 h; series mostly up to 53.6 µM
# Potency is the fitted concentration of half-maximal effect.
row,Structure (SMILES),Potency
1,O=C(Nc1ccncc1[N+](=O)[O-])c1ccc([N+](=O)[O-])cc1[N+](=O)[O-],inactive
2,O=C(COc1ccccc1)OC1CN2CCC1CC2 (configuration not stated),inactive
3,COP1(=S)c2c(C)nn(CCC#N)c2N=C(c2ccc(F)cc2)N1C (configuration not stated),inactive
4,O=C(OC1CN2CCC1CC2)c1cccc([N+](=O)[O-])c1 (configuration not stated),inactive
5,CCOC(=O)c1ccc(NC(=O)C(C)(CCl)SC)cc1 (configuration not stated),inactive
6,Cc1cc(SC(NC(=O)c2ccccc2)C(Cl)(Cl)Cl)nc(C(C)C)n1 (configuration not stated),active: 14.1 µM
7,CCCCOc1ccc(C(=O)NCC2(N3CCCCC3)CCCCC2)cc1OC,inactive
8,CCOC(=O)Nc1ccc([As](=O)(O)O)c(O)c1,inactive
9,O=P(Nc1ccccn1)(c1cccc2ccccc12)c1cccc2ccccc12,inactive
10,O=[N+]([O-])c1ccc(Nc2ccc(Oc3ccc([N+](=O)[O-])cc3[N+](=O)[O-])cc2)c([N+](=O)[O-])c1,inactive
11,CCOC(=O)Nc1cccc([As](=O)(O)O)c1,inactive
12,Cc1ccc(OP(=O)(Nc2ccc([N+](=O)[O-])cn2)Oc2ccc(C)cc2)cc1,inactive
13,Cc1ccc2nc3c(c(C)c2c1)CC(C(Cl)Cl)S3 (configuration not stated),inactive
14,C[As](=O)(O)c1cccc(C(=O)O)c1,inactive
15,O=[As](O)(c1ccc(O)cc1)c1ccccc1O,inactive
16,O=[N+]([O-])c1cc([N+](=O)[O-])c(-c2ccn[nH]2)s1,inactive
17,CCN(CC)C(=S)SC(NC=O)C(Cl)(Cl)Cl (configuration not stated),inactive
18,CC(C)NC(=O)NP(=O)(Oc1ccccc1)Oc1ccccc1,inactive
19,ClCCSc1nnc(-c2cccnc2)o1,inactive
20,CC(C)c1ccc(OP(=O)(Nc2ccccn2)Oc2ccccc2F)cc1 (configuration not stated),inactive
21,COc1cc(I)ccc1[As](=O)(O)O,inactive
22,Cc1cc(=O)[nH]c(N[N+](=O)[O-])n1,inactive
23,O=C(OC1CN2CCC1CC2)C12CC3CC(CC(C3)C1)C2 (configuration not stated),inactive
24,COc1ccc(N/C(=N/P(=O)(N2CCOCC2)N2CCOCC2)N2CCOCC2)cc1,inactive
25,O=[As](O)(c1cccc(O)c1)c1cccc(O)c1,inactive
26,Cc1cccc(OCC(=O)OC2CN3CCC2CC3)c1 (configuration not stated),inactive

row,Structure (SMILES),Potency
1,O=C(OC1CN2CCC1CC2)c1ccc(Cl)cc1 (configuration not stated),inactive
2,CS(=O)(=O)c1ccc(Cl)c(NC(=O)COC(=O)C(O)(c2ccccc2)c2ccccc2)c1,inactive
3,COc1cc(C(=O)NCC2(N3CCOCC3)CCCCC2)cc(Cl)c1OC(C)C,inactive
4,O=[As](O)(O)c1cccnc1,inactive
5,CCOP(=O)(Nc1cccc2ccccc12)OCC,inactive
6,COc1cc(C2NCCC3(OCCO3)C2(C)C)cc(OC)c1OC (configuration not stated),inactive
7,Nc1cccc2c([As](=O)(O)O)cccc12,inactive
8,Cc1ccc(NCCc2c([N+](=O)[O-])cc([N+](=O)[O-])cc2[N+](=O)[O-])cc1,inactive
9,CCCOP(=S)(Nc1nc(N)cc(=O)[nH]1)OCCC,inactive
10,O=C(O)COc1ccc([As](=O)(O)O)cc1[N+](=O)[O-],inactive
11,Nc1ccccc1[As](=O)(O)c1ccccc1,inactive
12,O=P(Nc1nccs1)(c1ccccc1)c1nc2ccccc2s1 (configuration not stated),active: 8.91 µM
13,O=P(Nc1nccs1)(Oc1ccccc1)Oc1ccccc1,inactive
14,CCOP1(=S)c2c(C)nn(CCC#N)c2N=C(c2ccccc2F)N1C (configuration not stated),inactive
15,CCOP1(=S)c2c(C)nn(CCC#N)c2N=C(c2ccc(F)cc2)N1C (configuration not stated),inactive
16,CN(C(=O)Cc1ccccc1)[C@@H]1CC[C@]2(CCCO2)C[C@H]1N1CCCC1,inactive
17,O=[N+]([O-])c1ccc2c(c1)nnn2O,inactive
18,NC(=O)Nc1ccc([As](=O)(O)O)cc1,inactive
19,CN(C)C1(CNC(=O)c2ccc(S(C)(=O)=O)cc2)CCCCC1,inactive
20,O=C(/C=C/c1ccccc1)OC1CN2CCC1CC2 (configuration not stated),inactive
21,Cc1ccc(C(=O)OC2CN3CCC2CC3)cc1 (configuration not stated),inactive
22,CC1CCC(C(C)C)C(OP(=O)(Nc2ccccn2)c2ccccc2)C1 (configuration not stated),inactive
23,Cc1nn(-c2ccccc2)c2c1P(=O)(N1CCOCC1)N(C)C(c1ccccc1)=N2 (configuration not stated),inactive
24,Nc1cccc([As](=O)(O)c2ccccc2)c1,inactive
25,O=P1(Nc2ccc(Br)cn2)COc2ccccc2OC1,inactive
26,O=[As](O)(c1cccs1)c1cccs1,inactive

row,Structure (SMILES),Potency
1,Cc1ccc(OCC(=O)OC2CN3CCC2CC3)cc1 (configuration not stated),inactive
2,O=P1(Nc2ncccn2)COc2ccccc2OC1,inactive
3,CC(C)(C)C(=O)NC(Sc1ncccn1)C(Cl)(Cl)Cl (configuration not stated),inactive
4,Clc1n[nH]nc1-c1nn[nH][15n]1,inactive
5,CCOP(=O)(NC(=NC(C)c1ccccc1)NC(C)c1ccccc1)OCC (configuration not stated),inactive
6,CCC1=CC2Cc3nc4ccc(Cl)cc4c(N)c3C(C1)C2 (configuration not stated),inactive
7,O=P1(Nc2ccccn2)COc2ccccc2OC1,inactive
8,CCOP(=O)(Nc1ccc(C)cn1)OCC,inactive
9,CN(C(=O)Cc1ccc(Cl)c(Cl)c1)[C@@H]1CCCC[C@H]1N1CCCC1,inactive
10,CC(C)/C=N\N=C(\N)N[N+](=O)[O-],inactive
11,O=[As](O)(c1ccccc1Br)c1ccccc1Br,inactive
12,c1nnnn1CCn1cnnn1,inactive
13,O=P(Nc1nccs1)(c1ccccc1)c1ccccc1,inactive
14,CC(C)C(=O)NC(Sc1ccccc1)C(Cl)(Cl)Cl (configuration not stated),inactive
15,CN(C(=O)Cc1ccccc1)[C@H]1CC[C@@]2(CCCO2)C[C@@H]1N1CCCC1,inactive
16,C[C@H]1OP(=O)(Oc2ccccc2)[C@H](O)[C@H](O)[C@H]1N=[N+]=[N-] (some centres not stated),inactive
17,O=P(Nc1nc2ccccc2s1)(c1ccccc1)c1ccccc1,inactive
18,CN(C)C1(CNC(=O)c2ccc(Cl)c(S(N)(=O)=O)c2)CCCCC1,inactive
19,O=P(Nc1ccccn1)(c1ccc(Br)cc1)c1ccc(Br)cc1,inactive
20,O=C(OC1CN2CCC1CC2)c1cccc(Cl)c1 (configuration not stated),inactive
21,Nc1ccc([As](=O)(O)c2ccc([N+](=O)[O-])cc2)cc1,inactive
22,C(Cc1nn[nH]n1)Cc1nn[nH]n1,inactive
23,O=[As](O)(c1ccccc1)c1ccc(O)cc1,inactive
24,O=[N+]([O-])c1ncn(CCn2cnc([N+](=O)[O-])n2)n1,inactive
25,O=[N+]([O-])c1ccc(O)c(/C=N/Nc2ccc([N+](=O)[O-])cc2[N+](=O)[O-])c1,active: 5.62 µM
26,CCOC(=O)NC(Sc1ccccc1)C(Cl)(Cl)Cl (configuration not stated),inactive

row,Structure (SMILES),Potency
1,Cc1ccc(NP(=O)(Oc2cccc(C)c2)Oc2cccc(C)c2)nc1,inactive
2,c1ccc(-c2nn[nH]n2)c(-c2nn[nH]n2)c1,inactive
3,O=C(NC1CCS(=O)(=O)C1)NP(=S)(Oc1ccccc1)Oc1ccccc1 (configuration not stated),inactive
4,CCNC(=S)/N=C(\N)N[N+](=O)[O-],inactive
5,CN(C)C(=O)Oc1noc2ccccc12,inactive
6,O=c1c2cc([N+](=O)[O-])ccc2[nH]c2c([N+](=O)[O-])cc([N+](=O)[O-])cc12,active: 1 µM
7,Cc1ccccc1OP(=O)(Nc1ccccn1)Oc1ccccc1C,inactive
8,CCC(=O)N1C2C3N(C(=O)CC)C1C1N(C(=O)CC)C(C(N1C(=O)CC)N3C(=O)CC)N2C(=O)CC,inactive
9,O=C(OC1CN2CCC1CC2)c1ccccc1 (configuration not stated),inactive
10,COC(=O)c1cc2c(s1)N=C(c1ccccc1)N(C)P2(=O)N1CCOCC1 (configuration not stated),inactive
11,O=P1(Nc2nc3ccc(Cl)cc3s2)COc2ccccc2O1 (configuration not stated),inactive
12,CC(=O)Nc1ccc(Oc2c([N+](=O)[O-])cc([N+](=O)[O-])cc2[N+](=O)[O-])cc1,inactive
13,CC(=O)Nc1ccc([As](=O)(O)O)c(O)c1,inactive
14,C[C@@H]1C=CCP(=O)(Oc2ccccc2)O1 (some centres not stated),inactive
15,C[C@H]1OP(=O)(Oc2ccccc2)C[C@@H]2O[C@@H]21 (some centres not stated),inactive
16,CC(=O)c1ccc(N2CC2c2ccncc2)cc1 (configuration not stated),inactive
17,Clc1ccc(Cl)c(NC2=NCC(CBr)S2)c1 (configuration not stated),inactive
18,CN1CCCC(OC(=O)C(c2ccccc2)c2ccccc2)C1 (configuration not stated),inactive
19,Cc1ccc(OP(=O)(Nc2nccs2)Oc2ccc(C)cc2)cc1,inactive
20,COc1ccccc1OP(=O)(Nc1ccc(C)cn1)Oc1ccccc1OC,inactive
21,Cc1ccc(N/C(=N/P(=O)(N2CCOCC2)N2CCOCC2)N2CCOCC2)cc1,inactive
22,NC(=O)c1cc([N+](=O)[O-])cc([N+](=O)[O-])c1N,inactive
23,O=C(NC(Sc1ccncn1)C(Cl)(Cl)Cl)c1ccccc1 (configuration not stated),active: 10 µM
24,Oc1ccccc1CNc1ccccn1,inactive
25,CC(C)CC(=O)NC(Sc1ccc(Cl)cc1)C(Cl)(Cl)Cl (configuration not stated),inactive
26,Nc1cc(N)c2nonc2c1[N+](=O)[O-],inactive

row,Structure (SMILES),Potency
1,CN(C(=O)Cc1ccc(Cl)c(Cl)c1)[C@H]1CCCC[C@@H]1N1CCCC1,inactive
2,Cc1ccc(NP(=O)(Oc2ccccc2F)Oc2ccccc2F)nc1,inactive
3,CCOP(=O)(Nc1ccccc1)OCC,inactive
4,Cc1cc(SC(NC(=O)c2ccc(F)cc2)C(Cl)(Cl)Cl)ncn1 (configuration not stated),active: 12.6 µM
5,O=P(Nc1nc2ccc(Cl)cc2s1)(c1ccccc1)c1ccccc1,active: 2 µM
6,O=C(O)c1ccccc1[As](=O)(O)O,inactive
7,CC(=O)Nc1ccc([As](=O)(O)O)cc1,inactive
8,Nc1cccc2ccc([As](=O)(O)O)cc12,inactive
9,CCN(N=Nc1nonc1N)c1nonc1N,active: 3.55 µM
10,O=[N+]([O-])c1cc([N+](=O)[O-])c(CCN2CCOCC2)c([N+](=O)[O-])c1,inactive
11,O=C(Nc1cc([As](=O)(O)O)ccc1O)c1ccccc1,inactive
12,O=C(O)CNc1ccc([As](=O)(O)O)cc1,inactive
13,O=[N+]([O-])c1cccc(NC2=NCC(CBr)S2)c1 (configuration not stated),inactive
14,O=[N+]([O-])c1ncn(CCn2ncnc2[N+](=O)[O-])n1,inactive
15,CCc1nc2c(n1)c1c(non1O)c1c2no[n+]1[O-],active: 12.6 µM
16,Cc1ccc(NP(=O)(Oc2ccccc2)Oc2ccccc2)nc1,inactive
17,CC(=O)N1C2C3N(C(C)=O)C1C1N(C(C)=O)C(C(N1C(C)=O)N3C(C)=O)N2C(C)=O,inactive
18,O=[N+]([O-])c1cccc2n[nH]nc12,inactive
19,COc1ccc(C2=NCC(CBr)S2)cc1 (configuration not stated),active: 11.2 µM
20,CC(=O)C1=CCCC2CCC1N2 (configuration not stated),inactive
21,CC(C)=N/N=C(\N)N[N+](=O)[O-],inactive
22,CCN(/C(=N/P(=O)(N1CCOCC1)N1CCOCC1)N1CCOCC1)c1ccc(OC)cc1,inactive
23,Nc1ccc([As](=O)(O)c2ccc(N)cc2)cc1,inactive

# — PubChem BioAssay AID2551 (National Center for Advancing Translational Sciences (NCATS), 2010)
